Binding of CDR-mutated scFvs to a peptide of the spike HR2 region

Target: peptide PDVDLGDISGINAS, taken from heptad repeat 2 (HR2) of SARS-CoV-2 spike.

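The starting antibody came from a phage panning campaign against this peptide. Designed CDR sequences, proposed from the first random library and measured here. Their group label is 14L_Ctrl (Ctrl: baseline library sampled from a position-specific scoring matrix, with some repeated check sequences). In AlphaSeq, yeast of one mating type display the scFv and yeast of the other type display the target. After mating in shaken culture at 30 °C for 16 h, diploids were selected and their barcode pairs sequenced. Read counts were normalised to the haploid input and turned into Kd by a linear fit to BCL2-family pairs of known affinity, for each replicate. Mating was done six times.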

Parent: Ab-14, a human scFv built as VH, a (GGGGS)3 linker, VL. Only the CDRs of the light chain vary.
VH: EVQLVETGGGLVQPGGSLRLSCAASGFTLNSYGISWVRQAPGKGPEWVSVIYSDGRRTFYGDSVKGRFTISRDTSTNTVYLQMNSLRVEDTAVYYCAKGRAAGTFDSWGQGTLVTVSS
VL: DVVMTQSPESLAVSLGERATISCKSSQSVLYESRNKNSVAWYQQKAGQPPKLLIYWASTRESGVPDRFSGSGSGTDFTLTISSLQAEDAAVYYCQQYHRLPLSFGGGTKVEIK

Each variant is given by its three light chain CDRs, as the data file delimits them; those of the parent are KSSQSVLYESRNKNSVA, WASTRES, QQYHRLPLS.
Values are log10 of the apparent Kd in nM; lower means stronger binding.
"n.d." means that the variant was in the library but no mating with the target was seen in that replicate; the authors take this as a sign of poor binding, and no number exists.
Empty control strains, which show no peptide, gave a signal in 4% of pairings with all light chain designs; the median was 2.64 and 95% of these signals were weaker than 1.59. No background was subtracted. For each scFv, signals with the empty controls are counted beside the result, with their mean in brackets.
In the paper, a design with two or fewer of six values counts as a poor binder.
Of ten entries with the parent sequence, four were seen in most replicates (averages 0.34 to 2.37), three in one and three in none, so single entries are noisy.
Values of this round are not directly comparable with the first-round values of the same sequences.

{"CDR-L1": "KSSQSFLYESRNKNSVA", "CDR-L2": "SASTRES", "CDR-L3": "QQYHRLPLS", "log10 Kd, replicates": "0.40 / 0.54 / 0.42 / 0.13 / 0.81 / 0.53", "empty controls": "1 of 18 (1.76)"}
{"CDR-L1": "KSSQSVLYESRLTNSVA", "CDR-L2": "SASTRES", "CDR-L3": "QQYHRLPLS", "log10 Kd, replicates": "1.59 / 1.20 / 0.97 / n.d. / 1.17 / n.d.", "empty controls": "0 of 18"}
{"CDR-L1": "KSSQSDLYESPNTNSVA", "CDR-L2": "NASTRES", "CDR-L3": "QQYHRLYLS", "log10 Kd, replicates": "n.d. / 1.22 / 1.54 / 0.96 / 1.33 / n.d.", "empty controls": "0 of 18"}
{"CDR-L1": "KSGQSVLNESRNHNSVA", "CDR-L2": "AASTRES", "CDR-L3": "QQYHRLPLS", "log10 Kd, replicates": "0.80 / 0.38 / 0.38 / 0.16 / 0.29 / 0.77", "empty controls": "3 of 18 (3.37)"}
{"CDR-L1": "KSSQSVLYESENKNSVA", "CDR-L2": "WASTRES", "CDR-L3": "QQYHRLPWA", "log10 Kd, replicates": "n.d. / 2.44 / n.d. / n.d. / n.d. / n.d.", "empty controls": "1 of 18 (1.89)"}
{"CDR-L1": "KFSQAVLYESRNKNSVA", "CDR-L2": "WASTRES", "CDR-L3": "QQYHRLPLS", "log10 Kd, replicates": "0.73 / 0.59 / 0.60 / 0.59 / 0.52 / 0.55", "empty controls": "2 of 18 (2.48)"}
{"CDR-L1": "KSSQSVGYESRLKNSVA", "CDR-L2": "WASTRES", "CDR-L3": "QQYHRLPLS", "log10 Kd, replicates": "0.61 / 0.39 / 0.10 / 0.23 / 0.54 / 0.48", "empty controls": "2 of 18 (2.52)"}
{"CDR-L1": "KSSQSVLYESRNKNSVA", "CDR-L2": "WASTRES", "CDR-L3": "QEYHMLPNS", "log10 Kd, replicates": "n.d. / n.d. / n.d. / n.d. / n.d. / n.d.", "empty controls": "0 of 18"}
{"CDR-L1": "TSSQSVLYESRNKNSVA", "CDR-L2": "WASTRAS", "CDR-L3": "QQYHRLPLS", "log10 Kd, replicates": "n.d. / 2.34 / 0.95 / n.d. / 2.12 / n.d.", "empty controls": "0 of 18"}
{"CDR-L1": "KISQAELYESRNKNSVA", "CDR-L2": "WASTRVS", "CDR-L3": "QQYHRAPLS", "log10 Kd, replicates": "n.d. / n.d. / n.d. / n.d. / n.d. / 2.62", "empty controls": "0 of 18"}
{"CDR-L1": "KDSDSMLYLERNKNSVA", "CDR-L2": "WASTREA", "CDR-L3": "QQYHQLPLS", "log10 Kd, replicates": "n.d. / n.d. / n.d. / 1.72 / 2.33 / n.d.", "empty controls": "0 of 18"}
{"CDR-L1": "KISQSVLYESRNVNSVA", "CDR-L2": "WASTRES", "CDR-L3": "QQYHTLPLS", "log10 Kd, replicates": "1.30 / 0.52 / 0.70 / 1.39 / 0.22 / 0.74", "empty controls": "0 of 18"}
{"CDR-L1": "SSEQSVLYESRNKNSVA", "CDR-L2": "WASTRES", "CDR-L3": "QQYHRLPLS", "log10 Kd, replicates": "n.d. / n.d. / n.d. / n.d. / n.d. / n.d.", "empty controls": "0 of 18"}
{"CDR-L1": "KSSQSRLYESRNKNSVA", "CDR-L2": "EASVRES", "CDR-L3": "QQYHRLPLS", "log10 Kd, replicates": "0.60 / 0.39 / 0.43 / 0.44 / 0.03 / 0.62", "empty controls": "0 of 18"}
{"CDR-L1": "KSSQSVLYDSRNKNSVA", "CDR-L2": "DASTRES", "CDR-L3": "SQYHRLPLS", "log10 Kd, replicates": "1.87 / 1.52 / 1.35 / 1.55 / 1.85 / 1.78", "empty controls": "4 of 18 (2.36)"}
{"CDR-L1": "KSSQSVGYESRNKNSVA", "CDR-L2": "GASTRES", "CDR-L3": "QQYHRLPLS", "log10 Kd, replicates": "0.79 / 0.67 / 0.58 / 0.69 / 0.61 / 0.85", "empty controls": "0 of 18"}
{"CDR-L1": "KSSQSVLYESRNKNSVA", "CDR-L2": "SASTRES", "CDR-L3": "QQDHRLPLS", "log10 Kd, replicates": "1.46 / 1.19 / 1.86 / 1.73 / 1.60 / 1.78", "empty controls": "0 of 18"}
{"CDR-L1": "KSSQSVLEESRMKNSVA", "CDR-L2": "AASTRES", "CDR-L3": "NQYHRLPNS", "log10 Kd, replicates": "n.d. / 1.50 / n.d. / n.d. / n.d. / n.d.", "empty controls": "0 of 18"}
{"CDR-L1": "KSSQSVGYESTYKNSVA", "CDR-L2": "WASTRES", "CDR-L3": "QQYHRLPLS", "log10 Kd, replicates": "1.16 / 0.75 / 1.17 / 0.91 / 2.06 / 1.18", "empty controls": "0 of 18"}

Values reported by Li et al. 2023, doi:10.1038/s41467-023-39022-2 (FLAb copy).